This note sets out measurements from patent US8119168B2, “Personal care compositions comprising a zinc containing material in an aqueous surfactant composition” (The Procter & Gamble Company, priority 2002, dated 2012).

The series is described as follows: Zincon metallochromic dye test for available Zn^2+ (visual color change orange to blue). Type of series: physicochemical. The settings on record: ZCM ~30 mg/10 ml water, pH 7-11, binary visual assessment. The source says: Zinc-containing materials (ZCMs) differ with respect to how strongly the zinc ion (Zn^2+) is held by counterions in the crystal lattice. The benefits discussed herein depend upon having available Zn^2+. […] The response is a binary visual assessment of whether or not the color changes indicating zinc-binding.
The method is based on the commercial metallochromic dye zincon. Zincon changes from an orange color to blue upon binding zinc and provides the basis for detecting available Zn^2+:
The specific procedure involves making a stock solution of zincon in ethanol (˜50 mg/10 ml ethanol). The ZCM is then added to water (˜30 mg/10 ml water) and agitated (pH range should be 7-11). Three to four drops of zincon solution are then added to the ZCM in water, agitated and a visual assessment of color change made.

For zinc salicylate, the “available Zn^2+ (zincon color change)” value was “have available zinc”.
